In article PMC11724075, “Small-molecule-induced ERBB4 activation to treat heart failure” (Nature Communications, 2025):

Tested on: mouse model of MI
Assay: Mouse model of MI, histology: CSA, capillaries, interstitial fibrosis, scar size
Details: MI experiment, male mice, MI/EF-1; MI experiment in female mice
Experimental: Twelve-week-old female and male Balb/cJ (Charles River, 000651) mice were randomized into either the ctrl or MI group. Mice in the MI group underwent surgical ligation of the LAD, while mice in the ctrl group underwent a sham procedure (n = 8 female mice, n = 10 male mice). Briefly, all mice received an injection of 0.1 mg/kg buprenorphine (Produlab Pharma) before induction of anesthesia with 8% sevoflurane (Zoetis). Anesthesia was maintained with 4.5% sevoflurane and mice were intubated and ventilated. An incision of 15 mm was made on the left side of the thorax and the thoracic cavity was opened at the third intercostal space using blunt forceps. […]
Hearts were fixed in 4% PFA, paraffin-embedded, and cut into 5-µm sections. Images were acquired with an Olympus BX43 microscope (Olympus Stream Motion Software) or a CELENA® S Digital Imaging System and analyzed with ImageJ 2.14.0 software. […] Cardiac total fibrosis was expressed as the ratio of positively stained fibrotic area (blue) to the total area and perivascular fibrosis as the ratio of fibrotic area to vascular lumen area. Scar size was determined by measuring the scar length over the total heart area. […] Quantification was performed by a person blinded to the treatment protocol.

Structure (SMILES): O=C(NC1CC1)C(Sc1nc2ccccc2c(=O)n1C1CCCC1)c1ccccc1 (stereo not shown) [EF-1]
- cardiomyocyte cross-sectional area: 615.176 µm²
